Antibody variant affinities, Ab-14 heavy chain, assay B

Values reported by Li et al. 2023, doi:10.1038/s41467-023-39022-2 (FLAb copy).

Target peptide (SARS-CoV-2 spike, HR2 region): PDVDLGDISGINAS

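Phage display of a naive human antibody library on the peptide gave the parent. Designed CDR sequences, proposed from the first random library and measured here. Several design methods are mixed in this list. The scFvs were displayed on barcoded MATa yeast, the peptide on MATalpha yeast. Mating (16 h, 30 °C) was followed by selection of diploids and sequencing of their barcodes. Each replicate has its own calibration line, from reference interactions of the BCL2 family. The assay was run in six technical replicates.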

Parent scFv Ab-14: VH joined to VL by three GGGGS repeats. Changes lie in the heavy chain CDRs alone.
VH: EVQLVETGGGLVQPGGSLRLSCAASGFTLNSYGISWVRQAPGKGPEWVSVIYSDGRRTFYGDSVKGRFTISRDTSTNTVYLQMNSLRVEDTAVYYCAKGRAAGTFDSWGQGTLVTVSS
VL: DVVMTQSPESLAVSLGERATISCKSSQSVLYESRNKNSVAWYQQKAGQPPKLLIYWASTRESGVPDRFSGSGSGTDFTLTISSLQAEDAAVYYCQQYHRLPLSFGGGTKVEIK

The parent's heavy chain CDRs are GFTLNSYGIS, VIYSDGRRTFYGDSVK, GRAAGTFDS; each variant's own CDRs replace them letter for letter.
This list holds designs with more than six substitutions.
The Kd shown is the geometric mean over detected replicates; a lower Kd is a better binder.
Where no diploid with the target was found in any replicate, the entry reads "nd": below detection, most likely a poor binder, though not proof of it.
Empty control strains, which show no peptide, gave a signal in 1% of pairings with all heavy chain designs; the median was 120 nM and 95% of these signals were weaker than 7.0 nM. No background was subtracted.

GFDLNEYGIS | VIYADGRRTAYTDSVK | GHNAGTFDV: 350 pM (6 of 6 replicates).
GFELNEYGIS | VIYADGMRASYRNDVK | GEISGDFML: nd (0 of 6 replicates).
GFDLNEYGIS | VIYADGQRTAYADDVK | GENAGTFDI: 740 pM (6 of 6 replicates).
GQNLDEYGIS | VIYADGMRKWYADDVK | GNMSAGVIA: nd (0 of 6 replicates).
GFDLENYGIS | VIYADGIRKVYDQSVK | GQMGTTFYV: nd (0 of 6 replicates).
GTDLEEYGIS | VIYADGRRAAYAQNVK | GFVGINVTD: 4.0 nM (6 of 6 replicates).
GFDLNEYGIS | VIYADGVRTFYTDSVK | GTNAGTFDM: 380 pM (6 of 6 replicates).
GFDLNEYGIS | VIYADGRRTAYADDVK | GANAGTFDV: 190 pM (6 of 6 replicates).
GFDLNEYGIS | VIYADGRRTAYADDVK | GTNAGTFDV: 150 pM (6 of 6 replicates).
GFKLDEYGIS | VIYADGHRVAYSQKVK | GDNVGNFFE: nd (0 of 6 replicates).
GFDINEYGIS | VIYADGKKTAFANSVK | GEWAGTFDD: 58 nM (6 of 6 replicates).
GFHLDEYGIS | VIYADGKRSAYTNHVK | GELEFGFVI: nd (0 of 6 replicates).
GFDLNEYGIS | VIYADGKRTAYADSVK | GNNAGTFDM: 200 pM (6 of 6 replicates).
GFDLNEYGIS | VIYADGQRTAYADDVK | GNVAGTFDI: 180 pM (6 of 6 replicates).
GFDLNEYGIS | VIYADGMRTAYADSVK | GNQAGTFDV: 9.7 nM (6 of 6 replicates).
GFDLDEYGIS | VIYADGRRTAYADSVK | GGNAGTFDV: 850 pM (6 of 6 replicates).
GFDLNEYGIS | VIYADGRRTAYSDSVK | GGNAGTFDE: 350 pM (6 of 6 replicates).
GFNLDEYGIS | VIYADGRRTFYADSVK | GEVAGTFDL: 710 pM (6 of 6 replicates).
GFDLNEYGIS | VIYADGKRTAYADSVK | GENAGTFDI: 110 pM (6 of 6 replicates).
GFDLNEYGIS | VIYADGQRTFYADSVK | GEVAGTFVQ: 630 pM (6 of 6 replicates).
GYDLNEFGIS | VIYADGSRVAYADDVK | GNIAGHILS: nd (0 of 6 replicates).
GFSLQEYGVS | VIYADGIRTQYTNDVK | GLYSGAFVM: 4.9 nM (1 of 6 replicates).
GFDLEEYGIS | VIYADGMRAAYANNVK | GVKGINVTI: nd (0 of 6 replicates).
GQDLQEYGVS | VIYADGMRTAYADSFK | GKSLGNIVQ: nd (0 of 6 replicates).
GFDLNEYGIS | VIYADGMRTSYTDSVK | GNEAGTFDS: 160 pM (6 of 6 replicates).
GFDLDEYGIS | VIYADGMRTFYADSVK | GETAGTFDI: 530 pM (6 of 6 replicates).
GFDIDEYGIS | VIYADGMRTFYADSVK | GTNAGTFDV: 1.0 nM (6 of 6 replicates).
GFDLNEYGIS | VIYADGMRTVYADSVK | GTAAGTFDQ: 660 pM (6 of 6 replicates).
GFDLNEYGIS | VIYADGKRTFYADSVK | GEVAGTFDQ: 620 pM (6 of 6 replicates).
GFDLDEYGIS | VIYADGMRTAYTDSVK | GETAGTFDT: 830 pM (6 of 6 replicates).
GFDLNEYGIS | VIYADGMRTFYADDVK | GNNAGTFDV: 3.2 nM (6 of 6 replicates).
GFDLDEYGIS | VIYADGMRTAYSDSVK | GANAGTFDL: 210 pM (6 of 6 replicates).
GFDLDEYGIS | VIYADGVREAYIDSVK | GNWSGRIMY: 1.5 nM (6 of 6 replicates).
GFSLDNYGIS | VIYADGMRTAYANSVK | GEQDGFLTT: nd (0 of 6 replicates).
GFDLNEYGIS | VIYADGMRTFYTDSVK | GTFAGTFDV: 210 pM (6 of 6 replicates).
GFDLDEYGIS | VIYADGRRTFYADSVK | GNQAGTFDV: 340 pM (6 of 6 replicates).
GFDINEYGIS | VIYADGMRRAYSQSVK | GHGEVLSLD: nd (0 of 6 replicates).
GFNLDEYGIS | VIYADGRRTAYKDTVK | GVRTWQFDL: nd (0 of 6 replicates).
GFDLNEYGIS | VIYADGRRTAYSDSVK | GENAGFFDF: 43 nM (6 of 6 replicates).
GFDLNEYGIS | VIYADGVRTFYADSVK | GNVAGTFDQ: 560 pM (6 of 6 replicates).
GFSLDEMGIS | VIYADGQRTAYQASVK | GQNIGNVFV: nd (0 of 6 replicates).
GFSLNEYGIS | VIYADGMRNFYADSVK | GLHSGFFDI: nd (0 of 6 replicates).
GFDLNEYGIS | VIYADGKRTFYADSVK | GKNAGTILV: 50 nM (1 of 6 replicates).
GDNLEEYGIS | VIYADGRRSSYASSVK | GAIRGTFDS: 59 nM (1 of 6 replicates).
GFDLNEYGIS | VIYADGRRTFYADSVK | GNVAGTFIS: 650 pM (2 of 6 replicates).
GFDLDEMGIS | VIYADGVRTAYIDQVK | GMGGTFMNV: 2.4 nM (1 of 6 replicates).
GFDLNEYGIS | VIYADGRRTFYTDSVK | GNVAGTFDQ: 170 pM (6 of 6 replicates).
GFDLDEYGIS | VIYADGVRTVYADSVK | GNVAGTFDV: 750 pM (5 of 6 replicates).
GFELDEYGIS | VIYADGIRRQYADNVK | GETADAFDM: 2.9 nM (6 of 6 replicates).
GFDLNEYGIS | VIYADGMRTAYSDSVK | GSVAGTFDV: 170 pM (6 of 6 replicates).
GDNLDEYGIS | VIYADGHRTAYSNPVK | GEYGVTVGQ: nd (0 of 6 replicates).
GDWLNSYGIS | VIYSDGRRTFYDDSVK | GQLGGTFDR: nd (0 of 6 replicates).

The 6 strongest on average among those seen in every replicate, once more:

CDR-H1,CDR-H2,CDR-H3,Kd (apparent),replicates with signal
GFDLNEYGIS,VIYADGKRTAYADSVK,GENAGTFDI,110 pM,6/6
GFDLNEYGIS,VIYADGRRTAYADDVK,GTNAGTFDV,150 pM,6/6
GFDLNEYGIS,VIYADGMRTSYTDSVK,GNEAGTFDS,160 pM,6/6
GFDLNEYGIS,VIYADGMRTAYSDSVK,GSVAGTFDV,170 pM,6/6
GFDLNEYGIS,VIYADGRRTFYTDSVK,GNVAGTFDQ,170 pM,6/6
GFDLNEYGIS,VIYADGQRTAYADDVK,GNVAGTFDI,180 pM,6/6

The authors averaged sequences with at least three values out of six and counted those with two or fewer as poor binders.
Values of this round are not directly comparable with the first-round values of the same sequences.